# Data: PubChem BioAssay AID504357 (The Scripps Research Institute Molecular Screening Center, 2011)
# Amino acid sequences for entries named in this document (tags omitted).
# UniProt P35372, whole entry, looked up: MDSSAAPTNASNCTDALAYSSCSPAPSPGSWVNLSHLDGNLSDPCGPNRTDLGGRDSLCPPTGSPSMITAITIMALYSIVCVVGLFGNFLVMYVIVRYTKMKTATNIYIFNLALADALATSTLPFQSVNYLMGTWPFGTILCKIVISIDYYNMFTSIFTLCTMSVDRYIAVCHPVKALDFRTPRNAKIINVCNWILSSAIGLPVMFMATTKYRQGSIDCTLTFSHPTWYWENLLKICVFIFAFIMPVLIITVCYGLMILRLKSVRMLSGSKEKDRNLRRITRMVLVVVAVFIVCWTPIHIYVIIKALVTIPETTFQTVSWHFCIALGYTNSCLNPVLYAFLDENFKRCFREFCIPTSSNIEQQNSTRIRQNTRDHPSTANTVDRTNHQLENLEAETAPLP
# UniProt P41143, whole entry, looked up: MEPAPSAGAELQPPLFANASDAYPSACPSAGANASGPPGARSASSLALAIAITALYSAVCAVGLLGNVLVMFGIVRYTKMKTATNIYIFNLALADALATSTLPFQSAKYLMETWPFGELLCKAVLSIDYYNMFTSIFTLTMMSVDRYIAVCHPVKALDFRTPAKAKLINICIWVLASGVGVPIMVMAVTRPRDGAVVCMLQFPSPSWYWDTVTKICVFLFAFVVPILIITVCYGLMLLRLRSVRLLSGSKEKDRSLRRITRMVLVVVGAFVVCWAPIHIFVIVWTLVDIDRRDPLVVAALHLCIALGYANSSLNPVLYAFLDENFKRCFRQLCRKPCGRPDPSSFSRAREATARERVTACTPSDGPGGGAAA
# The entries are a selection whose mix differs from that of the whole data set. Active and inactive are the calls of the source. No stated cut-off is given here; in the data, active means inhibition above about 22% (passing the limit was not always enough); inactive means the rest.
# Target: Mu-type opioid receptor (Homo sapiens) + Delta-type opioid receptor (Homo sapiens) (UniProt P35372+P41143)
# Experiment: OPRM1-OPRD1 heterodimer inverse agonism – cell-based, luminescence, primary screen (AID 504357);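 further: 0% = cells with DMSO and 100% = wells without cells with DMSO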
# Conditions: cell-based MOR-DOR heterodimer luminescence, at 9.3 µM, stronger effect = higher value
row,SMILES,inhibition
1,CC(C)OC(=O)c1ccc(NC(=O)Cn2c(-c3nonc3N)nc3ccccc32)cc1,inactive: -5.78%
2,C/C(=N\NC(=O)Cn1c(-c2ccccn2)nc2ccccc21)c1ccccc1,inactive: 32.2%
3,Cn1c(=O)c2c(ncn2CC(=O)Nc2ccc(N3CCOCC3)cc2)n(C)c1=O,inactive: 13.3%
4,CSc1nc2ccccc2n1CC(=O)N1CCCCC1,inactive: 12.1%
5,CSCC[C@H](NC(=O)N1CCn2c1nc1ccccc12)C(=O)N[C@@H](C(=O)O)c1ccccc1,inactive: 9.33%
6,CC(C)(C)C(=O)NC(Sc1ccncn1)C(Cl)(Cl)Cl (stereo not drawn),inactive: -1.48%
7,COc1ccc(CN(C)C(=O)Cn2cnc3c(NCc4ccccc4)ncnc32)cc1OC,inactive: 12.3%
8,CCN(Cc1ccccc1)C(=O)Cn1c(C(C)O)nc2ccccc21 (stereo not drawn),inactive: 12.8%
9,Cn1c(=O)c2c(ncn2CC(=O)NC(C)(C)C)n(C)c1=O,inactive: 7.82%
10,CCCCc1nc2ccccc2n1CC(=O)NN,inactive: 6.3%
11,c1ccc(CN2CCC(Nc3ncnc4sccc34)CC2)cc1,inactive: 14.3%
12,O=C(Cn1c(COc2ccccc2)nc2ccccc21)Nc1cccc(Cl)c1,inactive: -117%
13,CCCCOC(=O)Cn1c(=N)n(CCN(CC)CC)c2ccccc21,inactive: 22.3%
14,C[C@@H](NC(=O)Cn1cnc2c(NCc3ccccc3)ncnc21)c1cccc2ccccc12,inactive: 21.9%
15,COc1ccc(NC2CCN(C3CC(=O)N(c4ccc(F)c(Cl)c4)C3=O)CC2)cc1 (stereo not drawn),inactive: -10.5%
16,Cc1cccc(NC(=O)Cn2c(=O)n(C)c3ccccc32)c1,inactive: 15.2%
17,Cn1c(=O)c2c(ncn2CC(=O)Nc2nc3ccc(F)cc3s2)n(C)c1=O,inactive: 8.2%
18,c1ccc(CN2CCC(Nc3nc(-c4cccs4)nc4ccccc34)CC2)cc1,inactive: -31.3%
19,Cc1ccc(NP(=O)(Oc2ccccc2F)Oc2ccccc2F)nc1,inactive: 4.65%
20,CN(C(=O)Cc1ccc(Cl)c(Cl)c1)[C@H]1CCCC[C@@H]1N1CCCC1,inactive: -3.28%
21,O=C(CSc1nc2ccccc2n1CC(=O)N1CCCC1)NCc1ccc2c(c1)OCO2,inactive: 0.65%
22,Cc1cc(SC(NC(=O)c2ccc(F)cc2)C(Cl)(Cl)Cl)ncn1 (stereo not drawn),inactive: -1.84%
23,Cc1cccc(OCC(O)Cn2c(=N)n(CCN3CCOCC3)c3ccccc32)c1 (stereo not drawn),inactive: 12.2%
24,CCOc1ccc2nc(NC(=O)Cn3cnc4c3c(=O)n(C)c(=O)n4C)sc2c1,inactive: -1.97%

row,SMILES,inhibition
1,O=C(Cn1c(/C=C/c2ccccc2)nc2ccccc21)Nc1ccc(F)cc1,inactive: -10.7%
2,Cc1csc2c(NC3CCN(Cc4ccccc4)CC3)ncnc12,inactive: 3.69%
3,CCC(=O)Nc1nc2ccccc2n1CCN1CCOCC1,inactive: 11.9%
4,CCOP(=O)(Nc1ccccc1)OCC,inactive: 6.94%
5,O=C(Cn1c(Cc2ccccc2)nc2ccccc21)NCc1ccc2c(c1)OCO2,inactive: 4.91%
6,O=P(Nc1nc2ccc(Cl)cc2s1)(c1ccccc1)c1ccccc1,inactive: 11.3%
7,CCOC(=O)c1ccccc1NC(=O)Cn1c(-c2nonc2N)nc2ccccc21,inactive: 5.72%
8,C(=N\c1nc2ccccc2n1CCN1CCCCC1)/c1ccc2c(c1)OCO2,inactive: 1.88%
9,CC(C)NC(=O)CC1C(=O)N(Cc2ccccc2)C(C)c2nc3ccccc3n21 (stereo not drawn),inactive: 15.5%
10,COC(=O)C1=C(C)N=C2SCCC(=O)N2C1/C=C/c1ccccc1 (stereo not drawn),inactive: 9.82%
11,COC(=O)c1ccc(CNC(=O)Cn2cnc3c(OCc4ccccc4)ncnc32)cc1,inactive: 10.3%
12,O=C(Cn1cnc2c(NCc3ccccc3)ncnc21)NCc1nc2ccccc2[nH]1,inactive: 10.7%
13,CC1CCN(C(=O)Cn2c(SCC(=O)Nc3nccs3)nc3ccccc32)CC1,inactive: 1.45%
14,Cc1ccc(C)c(S(=O)(=O)N2CCN(C(=O)Cn3c(C(F)(F)F)nc4ccccc43)CC2)c1,inactive: 7.25%
15,Cc1ccc(-c2csc(NCCn3c(-c4ccncc4)nc4ccccc43)n2)cc1,inactive: 2.54%
16,Cc1ccc(CNC(=O)Cn2cnc3c(NCc4ccccc4)ncnc32)o1,inactive: 23%
17,CCCC1OP(N)(=O)OCC1CC (stereo not drawn),inactive: 3%
18,Cn1c(=O)c2c(ncn2CC(=O)NC[C@H]2O[C@@H](n3cnc4c(N)ncnc43)[C@H](O)[C@@H]2O)n(C)c1=O,inactive: 15.6%
19,Cn1c(=O)n(CCN2CCOCC2)c(=O)c2c1nc1n2CCN1c1ccc(Oc2ccccc2)cc1,inactive: -1.68%
20,COc1ccc(N2CCN(C(=O)Cn3cnc4c3c(=O)n(C)c(=O)n4C)CC2)cc1,inactive: 5.12%
21,COc1ccc(CN(C)C(=O)Cn2cnc3c(OCc4ccccc4)ncnc32)cc1OC,inactive: 14%
22,CC(C)[C@H](NC(=O)N1CCn2c1nc1ccccc12)C(=O)NCc1ccccc1Cl,inactive: -2.86%
23,O=C(Cn1cnc2ccccc21)NCc1ccccc1,inactive: 5.36%
24,CCOc1cccc(N2C(=O)CC(n3cnc4ccccc43)C2=O)c1 (stereo not drawn),inactive: 8.32%

row,SMILES,inhibition
1,Cc1ccc2c(c1)C1CN(C)CCC1N2C(=O)c1ccccc1NS(=O)(=O)c1ccc(F)cc1 (stereo not drawn),inactive: 5.3%
2,O=C(Cn1c(NCCO)nc2ccccc21)NCC(F)(F)F,inactive: 13.4%
3,CC(=O)Nc1ccc([As](=O)(O)O)cc1,inactive: 1.37%
4,Cn1c(=O)c2ncn(CC(=O)Nc3ccc4c5c(cccc35)CC4)c2n(C)c1=O,inactive: 1.85%
5,O=C(O)c1ccccc1[As](=O)(O)O,inactive: 11.8%
6,O=C(Cn1c(COc2ccccc2)nc2ccccc21)Nc1cc(Cl)cc(Cl)c1,inactive: -3.17%
7,Nc1ncnc2c1ncn2C1OC(CO)C(O)C1N (stereo not drawn),inactive: 9.11%
8,CC(C)CSc1nc2ccccc2n1CC(N)=O,inactive: 6.33%
9,C[C@H](O)[C@@H]1C(=O)N2CCc3ccc(N4CCOCC4)cc3[C@@H]2C[C@@H]1N(C)C(=O)Nc1ccccc1,inactive: 14.2%
10,CN1C(=O)Cn2c1nc1ccccc12,inactive: 10.3%
11,CC(C)C[C@H](NC(=O)N1CCn2c1nc1ccccc12)C(=O)N1CCCCC1,inactive: 7.6%
12,O=C(Cn1cnc2ccccc21)Nc1cccc([N+](=O)[O-])c1,inactive: 13.4%
13,Nc1cccc2ccc([As](=O)(O)O)cc12,inactive: -22.7%
14,Cn1c(=O)c2c(nc(NCc3ccccc3)n2CC(=O)NCc2ccccc2)n(C)c1=O,inactive: 5.23%
15,O=C(CCCCCNC(=O)N1CCn2c1nc1ccccc12)N[C@@H](Cc1ccccc1)C(=O)O,inactive: 10.6%
16,Cn1c(=O)n(CC(=O)NCc2cccnc2)c2ccccc21,inactive: 14.1%
17,O=C(Cn1c(SCC(=O)N2CCc3ccccc3C2)nc2ccccc21)NC1CCCC1,inactive: 13.9%
18,CC1CCCCN1C(=O)CSc1nc2ccccc2n1CC(=O)N1CCc2ccccc21 (stereo not drawn),inactive: 7.37%
19,CCN(CC)CCNC(=O)Cn1c(-c2ccccn2)nc2ccccc21,inactive: -2.66%
20,CCC(=O)N(c1ccccc1)C1CCCCC1,inactive: 19.1%
21,CCN(N=Nc1nonc1N)c1nonc1N,inactive: 15.1%
22,CC(C)(C)NC(=O)Cn1c(SCC(=O)NC2CCCC2)nc2ccccc21,inactive: 2.03%
23,CCN(CC)CCn1c(=N)n(CCOc2ccccc2)c2ccccc21,inactive: 10.3%
24,CCC(=O)Nc1nnc(/C=C/c2ccc(OC)cc2)s1,inactive: 4.69%

row,SMILES,inhibition
1,Nc1nonc1-c1nc2ccccc2n1CC(=O)Nc1ccccc1,inactive: 11.8%
2,CC(=O)c1ccc(NC(=O)C2CC(=O)Nc3nc4ccccc4n32)cc1 (stereo not drawn),inactive: 19.6%
3,CC1CN(Cc2nc3c(c(=O)[nH]c(=O)n3C)n2CCN2CCOCC2)CC(C)O1 (stereo not drawn),inactive: 7.6%
4,O=C(Nc1ccc2c(c1)nc1n2CCN(Cc2ccccc2)C1)c1cccs1,inactive: 4.52%
5,O=C(CCC(=O)Nc1ccccc1)N/N=C/C=C/c1ccccc1,inactive: -3.02%
6,COc1ccc(N2C(=O)CC(n3c(CCCCO)nc4ccccc43)C2=O)cc1 (stereo not drawn),inactive: 3.19%
7,O=C(Cn1c(-c2cncs2)nc2ccccc21)NCc1ccccc1,inactive: 15.1%
8,Cn1c(=O)c2c(ncn2CC(N)=O)n(C)c1=O,inactive: 5.05%
9,Cc1ccccc1NC(=O)Cn1cnc2c1c(=O)n(C)c(=O)n2C,inactive: 4.12%
10,COc1ccc(CC(=O)N2CCC(Nc3nc4ccccc4n3Cc3ccc(F)cc3)CC2)cc1,inactive: 9.49%
11,O=C(Cn1c(COc2ccccc2)nc2ccccc21)Nc1cc(Cl)ccc1Cl,inactive: -11.5%
12,COc1ccc(CCNC(=O)Cn2c(-c3nonc3N)nc3ccccc32)cc1OC,inactive: 8.22%
13,O=C(NCCn1c(C(F)(F)F)nc2ccccc21)[C@H]1CCCN1c1nc(CN2CCCCC2)cs1,inactive: -1.29%
14,CC(C)NC(=O)Cn1c(SCC(=O)N2CCCCCC2)nc2ccccc21,inactive: 7.76%
15,CN(CC(=O)Nc1cccc(F)c1)C(=O)Cn1cnc2c1c(=O)n(C)c(=O)n2C,inactive: 9.84%
16,CCCCOC(=O)Cn1c(=N)n(CCN2CCOCC2)c2ccccc21,inactive: 10.6%
17,CN1CCCC(OC(=O)C(c2ccccc2)c2ccccc2)C1 (stereo not drawn),inactive: 5.47%
18,Clc1ccc(Cl)c(NC2=NCC(CBr)S2)c1 (stereo not drawn),inactive: 2.74%
19,O=C(Cn1c(NCCO)nc2ccccc21)NCCc1ccccc1,inactive: -4.36%
20,Cc1ccc(/C=N/NC(=O)Cn2cnc3ccccc32)cc1,inactive: 15.7%
21,CCOc1cc(N2CCOCC2)c(OCC)cc1NC(=O)Cn1cnc2c(=O)n(C)c(=O)n(C)c21,inactive: 10.3%
